Laboratory results as given in PMC11208336 (Frontiers in Cellular and Infection Microbiology, 2024).

Assays:
HmuY^Pe [1] = biological target: T1, HmuY^Pe (Porphyromonas endodontalis, UniProt C3JC46, H128A); assay: biochemical
T1 construct: gene POREN0001_0444

HmuY^Pe [2] = biological target: T2, HmuY^Pe (Porphyromonas endodontalis, UniProt C3JC46); assay: biochemical
T2 construct: gene POREN0001_0444

Question: How did the Kd (HmuY^Pe [1]) turn out when C=CC1=C(C)C2=Cc3c(C=C)c(C)c4[n]3[Fe]([Cl])[n]3c(c(C)c(CCC(=O)O)c3=CC3=NC(=C4)C(C)=C3CCC(=O)O)=CC1=N2 [Fe(III)heme] was run?
Answer: 8.38 µM

Question: And the Kd (HmuY^Pe [2])?
Answer: 0.245 µM
